# Laboratory results taken from patent publication US11225474B2, “Crystalline salt forms of 3-(1,2,4-triazolo[4,3-a]pyridine-3-ylethynyl)-4-methyl-N-(4-((4-methylpiperazin-1-yl)methyl)-3-trifluoromethylphenyl)benzamide for medical application” (priority 2016, dated 2022).
# Tested on: mice
# Conditions: mouse, in vivo
smiles,measurement,value
"CS(=O)(=O)O.Cc1ccc(C(=O)Nc2ccc(CN3CCN(C)CC3)c(C(F)(F)F)c2)cc1C#Cc1nnc2ccccn12 [methanesulfonic acid salt, 3-(1,2,4-triazolo[4,3-a]pyridine-3-ylethynyl)-4-methyl-N-(4-((4-methylpiperazin-1-yl)methyl)-3-trifluoromethylphenyl)benzamide mono methanesulfonic acid salt]",phagocytic activity of neutrophils separated from blood,did not change the phagocytic activity of neutrophils
